{"source": "patent US6998422B2", "about": "“Lipid peroxide-lowering compositions” (Sankyo Company, Limited, priority 2000, dated 2006)", "test_system": "blood lipid peroxides", "assay": "Blood lipid peroxide levels in serum of beagle dogs after oral dosing for 11 days (Yagi's method, fluorometer)", "conditions": "relative ratio against averaged pre-dosing level (100), oral capsule once daily, pravastatin 2 mg/kg, pantethine 300 mg/kg, mean of 5 dogs", "data": [{"smiles": "CC(C)(CO)[C@@H](O)C(=O)NCCC(=O)NCCSSCCNC(=O)CCNC(=O)[C@H](O)C(C)(C)CO", "note": "[Pantethine alone, Pantethine]", "values": [{"measurement": "Blood Lipid Peroxide Levels after administration, 4 days", "setting": "4 days", "value": 82.5}, {"measurement": "Blood Lipid Peroxide Levels after administration, 8 days", "setting": "8 days", "value": 105.0}]}]}
